Our source for the activation values is PubChem BioAssay AID493225 (Broad Institute, 2011).

Sequences of proteins named here, by UniProt entry; tags and fusion partners are left off.
UniProt Q16665, whole entry: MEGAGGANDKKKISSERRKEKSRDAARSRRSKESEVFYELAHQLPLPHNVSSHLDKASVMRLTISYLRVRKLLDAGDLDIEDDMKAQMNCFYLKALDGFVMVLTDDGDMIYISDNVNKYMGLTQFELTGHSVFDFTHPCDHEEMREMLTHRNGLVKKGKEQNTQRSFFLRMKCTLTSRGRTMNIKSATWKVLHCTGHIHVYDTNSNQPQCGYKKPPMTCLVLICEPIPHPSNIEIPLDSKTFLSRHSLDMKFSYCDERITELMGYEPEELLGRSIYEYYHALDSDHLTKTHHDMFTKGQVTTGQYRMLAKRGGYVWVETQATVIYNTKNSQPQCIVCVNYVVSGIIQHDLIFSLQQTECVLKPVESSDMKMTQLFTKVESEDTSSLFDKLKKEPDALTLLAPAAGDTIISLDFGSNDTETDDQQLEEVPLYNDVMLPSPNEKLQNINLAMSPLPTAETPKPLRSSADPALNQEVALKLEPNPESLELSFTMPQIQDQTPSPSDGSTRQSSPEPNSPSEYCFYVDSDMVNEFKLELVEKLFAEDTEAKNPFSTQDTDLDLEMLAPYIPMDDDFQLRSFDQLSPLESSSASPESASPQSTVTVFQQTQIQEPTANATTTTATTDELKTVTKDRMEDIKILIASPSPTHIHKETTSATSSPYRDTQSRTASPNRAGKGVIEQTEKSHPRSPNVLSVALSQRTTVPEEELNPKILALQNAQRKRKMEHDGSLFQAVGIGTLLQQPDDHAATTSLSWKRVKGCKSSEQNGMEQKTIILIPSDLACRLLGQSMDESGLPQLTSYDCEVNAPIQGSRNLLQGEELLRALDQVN

This is a selection; strong and weak results do not stand in their true shares. The source made the active and inactive calls.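 Rule for the calls: active = fitted curve reaching 40% activation, where positive control equals 100, at or below the top valid dose; inconclusive = flat curve between 30 and 70% activation, or a poor fit; inactive = the rest, including activity in the opposite direction.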

This experiment addresses Hypoxia-inducible factor 1-alpha (Homo sapiens) (UniProt Q16665). Put plainly: HIF1A nuclear translocation activators in U2OS – imaging, U2OS GFP-HIF1alpha, high content, dry powder, set 2, orthogonal assay for HIF activator project, dose response (AID 493225). Particulars: U2OS GFP-HIF1alpha nuclear intensity imaging; at 38 µM (top of the series).

Regarding `O=c1[nH]c2ccccc2n1C1CCN(Cc2ccc(O)c3ncccc23)CC1`, the activation was inactive: 17.7%.
